Our source for the activation values is PubChem BioAssay AID504326 (The Scripps Research Institute Molecular Screening Center, 2011).

Sequences of proteins named here, by UniProt entry; tags and fusion partners are left off.
UniProt P35372, whole entry, looked up: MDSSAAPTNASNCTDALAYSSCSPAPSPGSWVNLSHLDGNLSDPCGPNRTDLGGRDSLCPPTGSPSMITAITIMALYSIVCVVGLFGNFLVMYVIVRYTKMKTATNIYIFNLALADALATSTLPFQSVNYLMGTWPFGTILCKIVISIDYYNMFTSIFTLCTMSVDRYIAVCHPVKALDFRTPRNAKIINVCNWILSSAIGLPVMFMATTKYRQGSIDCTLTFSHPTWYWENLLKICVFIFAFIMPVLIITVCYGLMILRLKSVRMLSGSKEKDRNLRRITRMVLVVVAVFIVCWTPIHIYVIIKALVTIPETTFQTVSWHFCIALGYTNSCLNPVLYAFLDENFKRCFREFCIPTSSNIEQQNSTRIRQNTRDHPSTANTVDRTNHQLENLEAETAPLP
UniProt P41143, whole entry, looked up: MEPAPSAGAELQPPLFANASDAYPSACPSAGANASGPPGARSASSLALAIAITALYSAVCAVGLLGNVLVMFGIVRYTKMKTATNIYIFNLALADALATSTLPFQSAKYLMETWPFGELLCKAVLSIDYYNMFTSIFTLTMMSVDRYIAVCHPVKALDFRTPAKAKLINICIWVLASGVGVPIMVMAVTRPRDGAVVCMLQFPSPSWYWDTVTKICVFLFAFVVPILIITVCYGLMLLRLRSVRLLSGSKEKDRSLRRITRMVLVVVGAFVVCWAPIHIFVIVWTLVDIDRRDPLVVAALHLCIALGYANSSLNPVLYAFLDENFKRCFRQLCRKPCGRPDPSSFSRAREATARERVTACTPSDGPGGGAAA

The entries are a selection whose mix differs from that of the whole data set. Activity calls are given as the source filed them. Cut-off read from the data, not from the text of the source: active = activation above about 18%; inactive = the rest.

In the experiment the target is Mu-type opioid receptor (Homo sapiens) + Delta-type opioid receptor (Homo sapiens) (UniProt P35372+P41143). Put plainly: inducers of mu-delta opioid receptor heterodimers – cell-based, luminescence, primary screen (AID 504326).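 Note: 0% = vehicle-treated cells and 100% = reference agonist.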 The settings on record: cells, OPRM1-OPRD1 heterodimerization, at 9.3 µM, hits give high values.
Regarding `CCN(CC)CCn1c(NCc2ccco2)nc2ccccc21`, the activation is inactive: -0.73%. For `CS(=O)(=O)N1CCn2c1nc1ccccc12` the value was inactive: -0.11%. Turning to `Cc1nc2ccccc2n1CC(=O)N/N=C\C=C\c1ccccc1`, the activation is inactive: -1.75%. In the case of `COC(=O)[C@H](Cc1ccccc1)NC(=O)Cn1cnc2c(OCc3ccccc3)ncnc21`, the activation is inactive: -1.69%. Consider `COc1cccc(NC(=S)N2CCn3c(nc4ccccc43)C2)c1`, for which the activation is inactive: -1.01%.

Consider `CC(C)C[C@H](NC(=O)N1CCn2c1nc1ccccc12)C(=O)NCc1ccc2c(c1)OCO2`, for which the activation is inactive: -0.59%. For `Cc1ccc(OCC(O)Cn2c(=N)n(CCN3CCCCC3)c3ccccc32)cc1` (stereo not drawn), the activation was inactive: 0.88%. Consider `N=c1n(CCN2CCCCC2)c2ccccc2n1CC(O)c1cccc(Br)c1` (stereo not drawn), for which the activation was inactive: 2.69%.

On to `Cn1c(=O)n(Cc2ccccc2F)c(=O)c2c1nc1n2CCN1Cc1ccco1`, for which the activation is inactive: -2.76%. As for `CCc1cccc(NC(=O)Cn2c3[n+](c4ccc(C(F)(F)F)cc42)CCCCC3)c1`, the activation is inactive: -2.34%.

For `NC(=O)CC(NC(=O)Cc1ccc(Cl)cc1)c1ccc(NC2CCN(Cc3ccccc3)CC2)c([N+](=O)[O-])c1` (stereo not drawn), the activation is inactive: -1.17%.

As to `Clc1n[nH]nc1-c1nn[nH][15n]1`, the activation is inactive: -2.45%. As for `COc1ccc(/C=N/NC(=O)Cn2c(Cc3ccc(OC)c(OC)c3)nc3ccccc32)cc1OC`, the activation is inactive: 2.05%. For `Cc1ccc(CSc2nc3ccncc3n2CC(=O)Nc2cc(C)cc(C)c2)cc1` the value was inactive: 6.14%. For `NNC(=O)Cn1c(-c2nonc2N)nc2ccccc21` the value was inactive: 6.41%; for `COc1ccc(CNC(=O)Cn2cnc3c(SC)nc(N)nc32)cc1`, inactive: -2.23%. For `COc1ccc(OCC(O)Cn2c(=N)n(CCN3CCOCC3)c3ccccc32)cc1` (stereo not drawn) the value was inactive: 2%. On to `CN(C)CCn1c(NC(=O)c2ccc(Cl)cc2)nc2ccccc21`, for which the activation is inactive: -0.73%. For `O=C(Cn1c(C(F)(F)F)nc2ccccc21)Nc1ccccc1C(=O)O` the value was inactive: -2.47%; for `C[C@H](O)[C@@H]1C(=O)N2CCc3ccc(N4CCOCC4)cc3[C@@H]2C[C@@H]1N(C)C(=O)C(C)(C)C`, inactive: 0.39%; for `O=C(NCCn1c(C(F)(F)F)nc2cc(C(F)(F)F)ccc21)[C@H]1CCCN1c1nc(CN2CCCCC2)cs1`, inactive: -1.73%. For `Cc1cc(C)cc(NC(=O)Cn2c(-c3ccccc3Cl)nc3ccccc32)c1` the value was inactive: 0.5%. For `CC(C)(C)C(=O)NC(Sc1ncccn1)C(Cl)(Cl)Cl` (stereo not drawn) the value was inactive: -0.42%. Take `CCCC(=O)Nc1nnc(/C=C/c2ccccc2)s1`: the activation was inactive: -2%. On to `Cn1c(=O)c2ncn(CC(=O)Nc3cc(C(F)(F)F)ccc3N3CCOCC3)c2n(C)c1=O`, for which the activation is inactive: -2.3%. With `Cn1c(=O)c2c(ncn2CC(=O)Nc2nnc(Cc3ccccc3)s2)n(C)c1=O`, the activation is inactive: -2.2%. For `Brc1cccc(CNc2nc3ccccc3n2CCN2CCOCC2)c1` the value was inactive: -0.65%. Regarding `Cc1ccc(CNC(=O)CCCCCNC(=O)N2CCn3c2nc2ccccc23)cc1`, the activation was inactive: -1.08%.

Turning to `S=C(Nc1ccccc1)N1CCn2c(nc3ccccc32)C1`, the activation is inactive: -0.4%. Consider `CCOCCn1c(=O)c2c(nc3n2CCN3c2ccc(CC)cc2)n(C)c1=O`, for which the activation was inactive: -3.31%.

Regarding `Cc1cc(N2C(=O)CC(N3CCC(n4c(=O)[nH]c5ccccc54)CC3)C2=O)no1` (stereo not drawn), the activation is inactive: -1.54%. As to `CC(C)NC(=O)Cn1c(SCC(=O)N2CCc3ccccc3C2)nc2ccccc21`, the activation is inactive: 1.51%.

For `COc1cc(Cl)c(C)cc1NC(=O)Cn1c(NCCO)nc2ccccc21`, the activation was inactive: -2.39%. For `Cc1ccc2c(c1)C1CN(C)CCC1N2C(=S)Nc1cccnc1` (stereo not drawn) the value was inactive: -1.46%. For `N#CCC(=O)N/N=C\c1ccc(OC/C=C/c2ccccc2)cc1` the value was inactive: 2.27%. For `FC(F)(F)c1cccc(-n2nnnc2C2(N3CCOCC3)CCCCC2)c1` the value was inactive: -2.01%; for `CN1CCC2(CC1)Nc1nc(SCc3ccc(Cl)cc3)nn1C1=C2CN(C)CC1`, inactive: -2.52%; for `Cc1ccc(SCc2nc3ccccc3n2CC(=O)Nc2ccc(Cl)cc2)cc1`, inactive: 3.25%.

`CCOc1ccc(C(=O)N2CCn3c2nc2ccccc23)cc1`: the activation was inactive: -3.14%. For `CCOC(=O)c1ccc(NC(=O)Cn2cnc3cc(C)c(C)cc32)cc1` the value was inactive: -1.42%. For `Cc1ccc(-c2nc(N(C)C3CCN(C)CC3)c3ccccc3n2)cc1` the value was inactive: -1.93%. For `CCOC(=O)Cc1csc(NC(=O)Cn2cnc3c2c(=O)n(C)c(=O)n3C)n1` the value was inactive: -2.19%; for `CNC(=O)Cn1c(=O)n(C)c2ccccc21`, inactive: -2.5%.

With `CC1c2nc3ccccc3n2C(CC(=O)NC2CC2)C(=O)N1Cc1ccccc1` (stereo not drawn), the activation was inactive: -2.66%. Turning to `CCN1C(=O)CC(N2CCC(Nc3ccc(F)cc3)CC2)C1=O` (stereo not drawn), the activation is inactive: -0.73%. Consider `CCOP(=O)(Nc1ccc(C)cn1)OCC`, for which the activation was inactive: -1.95%. For `CSc1nc(N)nc2c1ncn2CC(=O)NCCNc1ccc([N+](=O)[O-])cn1` the value was inactive: -3.17%; for `CC(c1ccccc1)N1CCn2c(nc3cc(NC(=O)NC4CCCCC4)ccc32)C1` (stereo not drawn), inactive: -3.02%. For `CC(C)NC(=O)CSc1nc2ccccc2n1CC(=O)N1CCc2ccccc21` the value was inactive: -1.06%; for `CC(C)C[C@H](NC(=O)N1CCn2c1nc1ccccc12)C(=O)N[C@@H](C(=O)O)c1ccccc1`, inactive: -2.21%; for `CN(C)C1(c2nnnn2CCOC(=O)Nc2ccc(Cl)cc2)CCCCC1`, inactive: 4.37%. As to `CCC1=CC2Cc3nc4ccc(Cl)cc4c(N)c3C(C1)C2` (stereo not drawn), the activation is inactive: 3.81%. For `Cn1c(=O)c2c(ncn2CC(=O)N2CCCc3ccccc32)n(C)c1=O` the value was inactive: -1.48%; for `COc1cccc(CNC(=O)CCCCCNC(=O)N2CCn3c2nc2ccccc23)c1`, inactive: -1.81%.

`O=P1(Nc2ccccn2)COc2ccccc2OC1`: the activation was inactive: -1.01%. For the molecule `O=C(Cn1c(-c2cscn2)nc2ccccc21)Nc1ccc2ccccc2c1`, the activation is inactive: 2.48%.

Regarding `O=C(Cn1c(NCCO)nc2ccccc21)NCCc1ccc(F)cc1`, the activation was inactive: -2.16%. In the case of `CC(NC(=O)Cn1c(NCCO)nc2ccccc21)C1CC2CCC1C2` (stereo not drawn), the activation is inactive: -3.06%. `CCN(CC)CCn1c(NCc2cccc(OC)c2)nc2ccccc21`: the activation is inactive: -1.47%.

Turning to `CC(C)(C)NC(=O)Cn1c(=O)n(CC(=O)NC(C)(C)C)c2ccccc21`, the activation was inactive: 0.97%. For the molecule `O=C(Cn1c(SCc2ccccc2)nc2ccccc21)N1CCOCC1`, the activation was inactive: -2.15%. For `Cn1c(=O)c2c(ncn2CC(=O)N2CCN(c3ccc(F)cc3)CC2)n(C)c1=O` the value was inactive: -2.45%.

As for `CCCCNC(=O)CC1C(=O)N(Cc2ccccc2)C(C)c2nc3ccccc3n21` (stereo not drawn), the activation was inactive: -1.81%.

As for `CCOP(=O)(NC(=NC(C)c1ccccc1)NC(C)c1ccccc1)OCC` (stereo not drawn), the activation is inactive: -3.74%.

With `O=[As](O)(c1cccs1)c1cccs1`, the activation is inactive: -3.36%.

In the case of `CCc1ccccc1NC(=O)CSc1nc2ccccc2n1CC(=O)N1CCCC1`, the activation is inactive: -0.41%.

For `Cc1ccc(OCC(=O)OC2CN3CCC2CC3)cc1` (stereo not drawn), the activation is inactive: -1.84%.

`Cc1ccc(C(=O)N(C)c2ccc(OCC(=O)N3c4ccc(C)cc4C4CN(C)CCC43)cc2)cc1` (stereo not drawn): the activation is inactive: -2.05%. On to `C[C@H](O)[C@@H]1C(=O)N2CCc3ccc(N4CCN(C)CC4)cc3[C@@H]2C[C@@H]1N(C)C(=O)Nc1cc(Cl)cc(Cl)c1`, for which the activation was inactive: -1.36%.

Take `CCC(=O)N1CCn2c1nc1ccccc12`: the activation was inactive: -1.91%. In the case of `NC(=O)Cn1c(S(=O)(=O)Cc2ccccc2)nc2ccccc21`, the activation is inactive: -2.38%.

`Cc1cc(NC(=O)Cn2cnc3c2c(=O)n(C)c(=O)n3C)n(-c2ccccc2)n1`: the activation was inactive: -0.15%. For `NS(=O)(=O)c1cccc(NC(=O)COC(=O)C(O)(c2ccccc2)c2ccccc2)c1`, the activation is inactive: -0.84%. As for `O=C(NCCn1c(-c2ccncc2)nc2ccccc21)[C@H]1CCCN1c1nc(CN2CCCCC2)cs1`, the activation is inactive: 0.29%. For `COC(=O)[C@H](Cc1ccc(O)cc1)NC(=O)Cn1cnc2c(OCc3ccccc3)ncnc21` the value was inactive: -1.08%. For `CC(C)C[C@H](NC(=O)N1CCn2c1nc1ccccc12)C(=O)NCc1ccco1` the value was inactive: -2.08%; for `Cc1ccc2c(c1)C1CN(C)CCC1N2C(=O)c1ccccc1NS(=O)(=O)c1ccc(F)cc1C` (stereo not drawn), inactive: 0%; for `O=P1(Nc2ccc(Br)cn2)COc2ccccc2OC1`, inactive: -1.28%.

In the case of `Cc1ccc(S(=O)(=O)N2CCN(C(=O)Cn3cnc4c3c(=O)n(C)c(=O)n4C)CC2)cc1C`, the activation is inactive: -0.9%. For `Cc1ccc2c(c1)C1CN(C)CCC1N2C(=O)Cn1nnc(-c2ccccc2F)n1` (stereo not drawn) the value was inactive: -1.02%; for `Cn1c(CNc2nc3ccccc3n2CCN2CCCCC2)nc2ccccc21`, inactive: -0.04%. For `CCOCN(C(=O)Cn1c(COC)nc2ccccc21)c1c(C)cccc1CC` the value was inactive: -1.51%. In the case of `Cc1ccc2c(c1)C1C[N+](C)(CC(=O)Nc3ccccc3Cl)CCC1N2C(=O)c1ccccc1Cl` (stereo not drawn), the activation was inactive: -2.94%. For `Nc1cccc([As](=O)(O)c2ccccc2)c1` the value was inactive: -3.31%. For `Cc1ccc(NC(=O)Cn2cnc3c(NCc4ccccc4)ncnc32)cc1C` the value was inactive: -1.98%; for `Cn1c(=O)c2c(ncn2CC(=O)Nc2ccc(Cl)cc2Cl)n(C)c1=O`, inactive: -1.95%; for `COc1ccccc1N1CCN(C(=O)Cn2cnc3c2c(=O)n(C)c(=O)n3C)CC1`, inactive: -3.47%. With `Cn1c(=O)[nH]c(=O)c2c1nc(CN1CCN(c3cccc(Cl)c3)CC1)n2CCN1CCOCC1`, the activation was inactive: 0.51%.
